Source: publication PMC6595003, “Insights into real-time chemical processes in a calcium sensor protein-directed dynamic library” (Nature Communications, 2019)

Test: Parallel artificial membrane permeability assay (PAMPA-BBB)
Settings: source data

Structure (SMILES): CNCCCN1c2ccccc2CCc2ccccc21 [Desipramine]
- Pe (10-6 cm s-1) Experimental 1: 14.9 10-6 cm s-1
